From patent US12692261B2, “Substituted heterocyclic compounds and therapeutic uses thereof” (Bayer Aktiengesellschaft, priority 2020, dated 2026)

By UniProt entry, the sequences of proteins in these tests, tags left out. Residues count along the entry.
UniProt P48729, whole entry: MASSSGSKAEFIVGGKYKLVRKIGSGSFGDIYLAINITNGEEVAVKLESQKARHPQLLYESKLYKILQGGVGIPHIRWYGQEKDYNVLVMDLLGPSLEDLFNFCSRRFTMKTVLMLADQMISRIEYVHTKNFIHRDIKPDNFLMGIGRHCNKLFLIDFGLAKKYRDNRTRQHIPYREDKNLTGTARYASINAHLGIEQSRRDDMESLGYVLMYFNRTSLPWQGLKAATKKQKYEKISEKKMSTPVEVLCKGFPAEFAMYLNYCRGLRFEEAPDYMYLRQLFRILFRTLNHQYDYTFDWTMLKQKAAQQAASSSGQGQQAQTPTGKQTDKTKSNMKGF
UniProt P00533, 669-1210 limits assumed: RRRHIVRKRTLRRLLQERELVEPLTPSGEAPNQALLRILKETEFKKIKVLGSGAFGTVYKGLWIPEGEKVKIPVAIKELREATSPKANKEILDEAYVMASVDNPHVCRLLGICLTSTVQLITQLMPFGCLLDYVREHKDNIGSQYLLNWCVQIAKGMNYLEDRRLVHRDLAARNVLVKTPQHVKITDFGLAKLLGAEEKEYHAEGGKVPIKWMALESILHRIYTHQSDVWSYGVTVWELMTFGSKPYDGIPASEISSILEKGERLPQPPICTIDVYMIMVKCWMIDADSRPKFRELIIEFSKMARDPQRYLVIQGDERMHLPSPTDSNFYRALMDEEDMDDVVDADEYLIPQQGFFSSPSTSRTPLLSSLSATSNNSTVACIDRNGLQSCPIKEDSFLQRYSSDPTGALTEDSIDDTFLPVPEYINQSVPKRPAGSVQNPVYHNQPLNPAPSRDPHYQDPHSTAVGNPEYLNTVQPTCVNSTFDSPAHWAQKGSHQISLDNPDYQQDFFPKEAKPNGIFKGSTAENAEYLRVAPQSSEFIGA

Assays:
[1] = biological target: T1, full-length human CSNK1A1 (Homo sapiens, UniProt P48729); assay: CSNK1A1 Assay 1 (ADP-Glo, 1 μM ATP, substrate Btn-Ahx-SGSEGDSESGEEEG); settings: read-out: CSNK1A1 Assay 1 IC50 [mol/l] (median), Table 5, examples of WO 2016/120196
Protocol: (§1) CSNK1A1-inhibitory activity of compounds of the present invention in presence of 1 μM adenosine-tri-phosphate (ATP) was quantified employing the CSNK1A1 assay as described in the following paragraphs. In essence, the enzyme activity is measured by quantification of the adenosine-di-phosphate (ADP), which is generated as a co-product of the enzyme reaction, via the “ADP-Glo™ Kinase Assay” kit from the company Promega. This detection system works as follows: In a first step the ATP not consumed in the kinase reaction is quantitatively converted to cAMP employing an adenylate cyclase (“ADP-Glo-reagent”), then the adenylate cyclase is stopped and the ADP generated in the kinase reaction converted to ATP which generates in a luciferase-based reaction a glow-luminescence signal (“Kinase Detection Reagent”).
(§2) Recombinant fusion protein of N-terminal Glutathion-S-Transferase (GST) and full-length human CSNK1A1, expressed by baculovirus infected insect cells and purified via Glutathion affinity chromatography, was purchased from Life Technologies (product no. PV4174) and used as enzyme. As substrate for the kinase reaction the biotinylated peptide Btn-Ahx-SGSEGDSESGEEEG (C-terminus in amide form) was used which can be purchased e.g. from the company Biosyntan (Berlin-Buch, Germany). […]

[2] = biological target: wild-type Epidermal Growth Factor Receptor (EGFR) (Homo sapiens, UniProt P00533); assay: WT-EGFR Kinase Assay (TR-FRET, 2 mM ATP); settings: read-out: EGFR Wildtyp-2 mM ATP IC50 [mol/l] (median), Table 5, examples of WO 2016/120196
Text: Inhibitory activity of compounds of the present invention against wild-type Epidermal Growth Factor Receptor (EGFR) was quantified employing the TR-FRET based EGFR assay as described in the following paragraphs.
Recombinant fusion protein of N-terminal Glutathion-S-Transferase (GST) and a fragment of human EGFR (amino acids R669 to A1210), expressed in Sf9 insect cells and purified via affinity chromatography using Glutathion Sepharose as described above, was used as kinase. As substrate for the kinase reaction the biotinylated peptide biotin-Ahx-AEEEEYFELVAKKK (C-terminus in amide form) was used which can be purchased e.g. form the company Biosynthan GmbH (Berlin-Buch, Germany). […]
The resulting mixture was incubated 1 h at 22° C. to allow the binding of the biotinylated phosphorylated peptide to the streptavidine-XL665 and the PT66-Tb-Cryptate. Subsequently the amount of phosphorylated substrate was evaluated by measurement of the resonance energy transfer from the PT66-Tb-Cryptate to the streptavidine-XL665. Therefore, the fluorescence emissions at 620 nm and 665 nm after excitation at 337 nm were measured in a HTRF reader, e.g. a Pherastar (BMG Labtechnologies, Offenburg, Germany) or a Viewlux (Perkin-Elmer). […]

[3] = biological target: T1, full-length human CSNK1A1; assay: CSNK1A1 Assay 2 (ADP-Glo, 1 μM ATP, substrate biotin-Ahx-KRRRAL-pS-VASLPGL); settings: read-out: CSNK1A1 Assay 2 IC50 [mol/l] (median), Table 5, examples of WO 2016/120196
Protocol: as §1
as §2, with “biotin-Ahx-KRRRAL-pS-VASLPGL” for “Btn-Ahx-SGSEGDSESGEEEG”

## CC(=O)Nc1cc(-c2[nH]c3c(c2Nc2ccccc2)C(=O)NCC3)ccn1
[1]
  IC50: 0.0203 µM
[2]
  IC50: 0.104 µM

## CC(=O)Nc1cc(-c2[nH]c3c(c2Nc2ccccc2)C(=O)N(C)CC3)ccn1
[3]
  IC50: 0.0114 µM
[2]
  IC50: 0.15 µM
